Source: paper PMC11997985, “Synthesis and In Vitro Profiling of Psilocin Derivatives: Improved Stability and Synthetic Properties” (Journal of Medicinal Chemistry, 2025)

Tests used:
[1] = Forced degradation of psilocin salts, base (0.10 M NaOH); conditions: after 24 h, RT
[2] = Forced degradation of psilocin salts, oxidative (0.30% H2O2); conditions: 0.30% H2O2, after 24 h, RT
[3] = Photolytic degradation of psilocin salts; conditions: 12900 lx, RT, water:acetonitrile 1:1
[4] = Thermal degradation of psilocin salts at 60 °C; conditions: water:acetonitrile 1:1

What does the source list for `CN(C)CCc1c[nH]c2cccc(O)c12.Cl` [Compound 9a]?
color [1]: black; color [2]: pink tint; color (24 h) [3]: gray; color (24 h) [4]: black

Which color [1] does the source give for `CN(C)CCc1c[nH]c2cccc(O)c12.O=C(O)c1ccccc1` [Compound 9c] here?
The color was “black”.

What about the color [2] of the same compound?
Its color is “brown tint”.

What about the “color (24 h)” value [3] of the same compound?
Its value is “brown”.

What about the “color (24 h)” value [4] of the same compound?
Its value is “black”.

With `CN(C)CCc1c[nH]c2cccc(O)c12.O=P(O)(O)O` [Compound 9e] as the compound, how does the color [1] read?
The color was “black”.

What about the color [2] of the same compound?
Its color is “gray”.

And the “color (24 h)” value [3]?
The value was “gray”.

And the “color (24 h)” value [4]?
Its value is “black”.

For `CN(C)CCc1c[nH]c2cccc(O)c12.O=C(O)C(F)(F)F` [Compound 9f], which color [1] is on record?
The color was “black”.

And the color [2]?
The color was “yellow”.

And the “color (24 h)” value [3]?
The value was “black”.

What about the “color (24 h)” value [4] of the same compound?
Its value is “black”.
